Data reported in PubChem BioAssay AID2275 (Broad Institute, 2010).
Only a part is listed here, and it is no random draw. Calls of active or inactive are those of the source. Rule as the data show it: active = viability loss activity score above about 50%; inconclusive = no clear call, values can overlap the other calls; inactive = below about 35%.

Test: cytotoxicity in HRASV12-transformed BJ fibroblasts – cell-based, luminescence, CellTiterGlo ATP, primary screen (AID 2275);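 also: higher score means fewer live cells and less ATP luminescence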
Details: BJeLR fibroblasts viability, 48 h, active compounds read high, HRASV12, hTERT and SV40 LT/ST transformed, concentration not given here
In the case of CC(C)(C)OC(=O)N1CCC(Nc2ccc(OC(F)(F)F)cc2)CC1, the viability loss activity score is reported as inactive: 1.37%.
With FC(F)(F)Oc1ccc(NC2CCNCC2)cc1 the viability loss activity score was inactive: -1.53%.
